Columns and labels:
Acetylcholinesterase [1] = target: Acetylcholinesterase (Bos taurus, UniProt P23795)
Acetylcholinesterase [2] = target: Acetylcholinesterase (Homo sapiens, UniProt P22303)
Cholinesterase = Cholinesterase (Homo sapiens, UniProt P06276)

Protein sequences, listed by entry. Tags and fused reporters are not part of them. Lines headed by an entry give the natural chain unless they say otherwise; changes in a name come on top.
UniProt P23795: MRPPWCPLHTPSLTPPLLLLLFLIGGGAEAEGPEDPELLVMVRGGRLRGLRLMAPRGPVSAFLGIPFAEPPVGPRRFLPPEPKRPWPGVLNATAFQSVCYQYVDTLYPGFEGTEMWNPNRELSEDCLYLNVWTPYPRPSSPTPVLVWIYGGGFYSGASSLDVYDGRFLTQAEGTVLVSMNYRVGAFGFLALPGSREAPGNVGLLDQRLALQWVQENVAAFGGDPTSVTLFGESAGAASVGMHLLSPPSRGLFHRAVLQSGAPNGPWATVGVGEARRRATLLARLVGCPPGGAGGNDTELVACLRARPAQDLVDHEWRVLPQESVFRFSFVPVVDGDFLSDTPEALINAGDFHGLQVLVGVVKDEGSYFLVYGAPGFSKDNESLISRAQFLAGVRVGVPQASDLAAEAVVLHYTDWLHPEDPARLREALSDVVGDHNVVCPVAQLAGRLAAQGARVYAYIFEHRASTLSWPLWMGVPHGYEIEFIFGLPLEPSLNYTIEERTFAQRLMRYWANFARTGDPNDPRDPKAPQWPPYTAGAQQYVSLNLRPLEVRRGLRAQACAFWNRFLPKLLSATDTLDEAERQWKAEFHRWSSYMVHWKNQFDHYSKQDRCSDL
UniProt P22303: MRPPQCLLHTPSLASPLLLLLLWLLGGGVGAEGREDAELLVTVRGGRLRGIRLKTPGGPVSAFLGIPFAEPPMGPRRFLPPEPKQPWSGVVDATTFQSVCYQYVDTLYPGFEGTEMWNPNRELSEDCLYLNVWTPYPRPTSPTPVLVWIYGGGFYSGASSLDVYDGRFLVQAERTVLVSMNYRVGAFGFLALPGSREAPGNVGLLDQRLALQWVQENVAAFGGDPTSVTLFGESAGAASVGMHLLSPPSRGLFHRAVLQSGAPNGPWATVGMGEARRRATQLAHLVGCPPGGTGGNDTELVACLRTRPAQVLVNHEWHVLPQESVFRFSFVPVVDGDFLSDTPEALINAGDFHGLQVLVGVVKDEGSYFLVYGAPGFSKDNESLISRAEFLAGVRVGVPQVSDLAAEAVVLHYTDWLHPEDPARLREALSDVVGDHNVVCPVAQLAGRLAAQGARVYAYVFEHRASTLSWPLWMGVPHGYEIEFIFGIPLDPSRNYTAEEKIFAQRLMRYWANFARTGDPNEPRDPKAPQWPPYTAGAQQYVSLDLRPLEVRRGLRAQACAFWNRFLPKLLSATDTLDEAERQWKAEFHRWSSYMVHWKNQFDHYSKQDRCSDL
UniProt P06276: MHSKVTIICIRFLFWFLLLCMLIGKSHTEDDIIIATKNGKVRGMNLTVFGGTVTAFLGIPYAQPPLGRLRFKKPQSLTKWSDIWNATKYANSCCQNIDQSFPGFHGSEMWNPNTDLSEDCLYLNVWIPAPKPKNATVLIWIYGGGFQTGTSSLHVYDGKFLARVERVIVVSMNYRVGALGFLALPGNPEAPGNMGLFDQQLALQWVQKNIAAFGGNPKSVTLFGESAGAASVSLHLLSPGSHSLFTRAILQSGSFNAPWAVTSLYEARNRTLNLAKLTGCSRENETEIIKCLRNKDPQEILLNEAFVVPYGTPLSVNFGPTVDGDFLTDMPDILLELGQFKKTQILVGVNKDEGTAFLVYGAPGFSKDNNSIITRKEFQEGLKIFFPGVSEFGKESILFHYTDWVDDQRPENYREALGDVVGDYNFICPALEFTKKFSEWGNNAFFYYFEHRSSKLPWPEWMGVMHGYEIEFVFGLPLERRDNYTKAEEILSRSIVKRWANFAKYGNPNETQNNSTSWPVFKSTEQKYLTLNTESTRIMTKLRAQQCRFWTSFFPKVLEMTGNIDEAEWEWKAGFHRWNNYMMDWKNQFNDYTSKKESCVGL

9-[(2-{4-[(5,6-Dimethoxy-1-oxoindan-2-yl)methyl]piperidin-1-yl}ethyl)amino]-1,2,3,4-tetrahydroacridine dihydrochloride
IC50 (Acetylcholinesterase [1]): 1.74 nM | IC50 (Acetylcholinesterase [2]): 4.04 nM | IC50 (Cholinesterase): 12.4 nM
